miR-21 reporter – miR-21 reporter, rising signal | AID 2288 | HeLa miR-21 FLuc reporter, luciferase, 48 h | 340,000 tested, under 10 active | Potency, µM (doses to about 38.3 µM); active = well fitted rising curve with a large enough effect; inconclusive = small, poorly fitted or top-dose-only effect; inactive = no such curve, though single readings can be large or run the other way;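 note: miR-21 action dims this reporter so a rising signal means less miR-21 action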
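Using DMEM plus 10% FBS, HeLa miR-21-FLuc cells are incubated with test compounds (final up to about 40uM) for 48 hours; firefly luciferase signal is then imaged following reagent-mediated lysis.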
Nrf2 block – inhibitors of Nrf2 signaling | A549 ARE-Fluc reporter, luciferase luminescence, 18-24 h | Potency, µM (series often up to 46 µM), usual class: inhibitors | 360,000 tested, 2.1% active | AID 504444; further: nearly all actives have a fitted effect of over 60% in size
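Concentration-response testing used A549 ARE_Fluc cells at 5000 cells/well. Following an 18-24 h compound incubation, viability was read by fluorescence (Ex 405/Em 525) and luciferase output by luminescence.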
TCR act – activators of T cell receptors. primary human leukocytes, anti-CD3, IL-2 HTRF, 48 h. Potency, µM (highest dose often 9.22 µM), hits mostly activators. 330,000 tested, under 10 active. AID 504894
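IL-2 produced over 48 hr by a-CD3 bead-stimulated primary human leukocytes exposed to compounds was detected with a homogeneous time-resolved FRET immunoassay, 665nm acceptor signal after 320nm excitation.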
A549 tox – A549 cytotoxicity, counter-screen for Nrf2 inhibitors; A549 ARE-Fluc cells, CellTiter-Fluor viability, 18-24 h; Potency, µM (titrated, usually from 46 µM), most hits filed as inhibitors; 390,000 tested, 0.16% active
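A549 ARE_Fluc cells in 5% FBS OPTI-MEM were exposed to compounds in concentration-response for 18-24 h at 37 deg C. Viability was read by CellTiter-Fluor fluorescence (Ex 405/Em 525) after 30 min, before the luciferase read.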
ClpP mod – qHTS Assay for Activators of ClpP; ATP-dependent Clp protease proteolytic subunit (Bacillus subtilis (strain 168)), P80244; AID 651965, 2013; Potency, µM (top dose mostly 57.5 µM); 340,000 tested, 1.9% active; purified B. subtilis ClpP, FRET peptide cleavage, 20 min; active means well fitted falling curve with a large enough effect; inconclusive means small, poorly fitted or top-dose-only effect; inactive means no such curve, though single readings can be large or run the other way; further: the source files actives as falling curves though it sought activators and does not explain the sign; nearly all actives have a fitted effect of over 65% in size
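FRET quenching reversal measured ClpP activation: 10 microg/mL B. subtilis ClpP at pH 8 with the FRET-FV decapeptide, read at 430 nm after 320 nm excitation. The 20-min minus 0-min signal was scaled between DMSO/no-enzyme wells and ADEP (5.8 microM final).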
Nrf2 activator – activators of Nrf2 (ARE) signaling; AREc32 ARE-luciferase reporter (MCF7-derived line), luminescence, 24 h; Potency, µM (titrated, usually from 46.1 µM), actives largely listed as activators; 410,000 tested, 0.31% active; AID 624171; further: nearly all actives have a fitted effect of over 65% in size
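Each well held 1000 AREc32 cells, which were incubated with compound for 24 hr at 37 deg C after overnight attachment, and ARE reporter activity was quantified by firefly luciferase luminescence.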
Of the large screens only hits and unclear results are named; the others gave an inactive call; ! = not active in a repeat. The list is not random: actives were taken first. Their share in the collection is about 3.7%. Unless noted, the call rests on the fitted dose curve; in most records, active means well fitted curve in the direction sought with a large enough effect; inconclusive means small, poorly fitted or top-dose-only effect, or another doubt; inactive means no such curve, though single readings can be large; an effect the other way counts as inactive or inconclusive.

COC(=O)c1ccc2nc(-c3ccc(F)cc3)c(CC3CCCCC3)n2c1	Nrf2 activator inconclusive (no result: miR-21 reporter, Nrf2 block, TCR act, A549 tox)
CC1N=C2c3ccccc3N=C(SCC(=O)NCc3ccc(Cl)cc3)N2C1=O (centres undefined)	none (no result: Nrf2 block, TCR act)
CO[C@H]1CN(C)C(=O)c2cc(NC(=O)c3cc(C)on3)ccc2OC[C@@H](C)N(C(=O)C2CC2)C[C@H]1C	none (no result: miR-21 reporter, Nrf2 block, TCR act, A549 tox, Nrf2 activator)
COc1ccc(OC)c(NC(=O)c2cnc(Nc3ccccc3OC)c3ccccc23)c1	ClpP mod 35µM
O=C(N/N=C/c1ccccc1)c1ccco1	Nrf2 block inconclusive
O=C(C#Cc1ccccc1)c1ccco1	miR-21 reporter inconclusive, Nrf2 block 21µM, A549 tox inconclusive
O=S(=O)(NCc1ccc2c(c1)OCO2)c1ccc2c(c1)oc1ccccc12	Nrf2 block 21µM (no result: TCR act)
O=S(=O)(NCc1ccc2c(c1)OCO2)c1cccc(F)c1	ClpP mod 28µM (no result: TCR act)
O=C(O)c1ccc(S(=O)(=O)NCc2ccc3c(c2)OCO3)cc1	none
CNc1nc(NCC2CCCCC2)c2sccc2n1	none (no result: miR-21 reporter, Nrf2 block, TCR act, A549 tox)
COc1ccc(C2c3c(N)nc(Cc4ccccc4)nc3Oc3ccc4ccccc4c32)cc1OC (centres undefined)	Nrf2 block inconclusive (no result: miR-21 reporter, TCR act, ClpP mod, Nrf2 activator)
COc1ccccc1NC(CC(=O)c1ccccc1)C(=O)OCC(=O)c1ccc(C)c(C)c1 (centres undefined)	Nrf2 block inconclusive, Nrf2 activator 13µM
COc1ccccc1NC(CC(=O)c1ccccc1)C(=O)OCC(=O)c1ccc(C)cc1 (centres undefined)	Nrf2 block inconclusive
COc1ccccc1NC(CC(=O)c1ccccc1)C(=O)OCC(=O)c1ccc(Br)cc1 (centres undefined)	Nrf2 block inconclusive, Nrf2 activator 22µM
COc1ccc(OC)c(N(/C(N)=N/c2nc(C)cc(C)n2)S(=O)(=O)c2ccc(NC(C)=O)cc2)c1	none (no result: ClpP mod)
CSc1ncc(C(=O)Nc2ccc(C)c(Cl)c2)c(-c2ccccc2)n1	ClpP mod inconclusive (no result: TCR act)
CCCCCCCCCCCCCCCC[n+]1ccc(/C=C/c2c[nH]c3ccccc23)c2ccccc21	none (no result: miR-21 reporter, Nrf2 block, TCR act, A549 tox, Nrf2 activator)
CCc1ccc(-c2nc(SCC(=O)NCCOC)c(-c3ccc(C)cc3)[nH]2)cc1	ClpP mod 28µM (no result: TCR act)
COc1ccc(-c2[nH]c(-c3ccc(Cl)cc3)nc2SCC(=O)NCC2CCCO2)cc1 (centres undefined)	Nrf2 block inconclusive, ClpP mod 25µM (no result: TCR act)
COc1ccc(-c2ccc3nnc(SCC(=O)NCC4CCCO4)n3n2)cc1 (centres undefined)	ClpP mod inconclusive (no result: miR-21 reporter)
CCOc1ccc(-c2ccc3nnc(SCC(=O)NCC4CCCO4)n3n2)cc1 (centres undefined)	ClpP mod 32µM (no result: miR-21 reporter)
Cc1ccc(-c2nc(SCC(=O)NCC3CCCO3)c(-c3ccc(C)cc3)[nH]2)cc1 (centres undefined)	ClpP mod 25µM
NC(=O)C1CCCN1Cc1ccc2c(c1)OCO2 (centres undefined)	none (no result: miR-21 reporter)
O=C(COC(=O)c1ccc(Cl)cc1O)NCCN1C(=O)CSC1=O	none
CC1(c2ccc(Cl)cc2)NC(=O)N(CC(=O)N2CCN(C(=O)c3cccs3)CC2)C1=O (centres undefined)	none (no result: miR-21 reporter, Nrf2 block, TCR act, A549 tox)
CCOc1ccc(CN2C(=O)c3ccccc3Sc3ccc(C(=O)NCc4ccc5c(c4)OCO5)cc32)cc1	Nrf2 block inconclusive (no result: TCR act)
Cc1ccc(-c2[nH]c(-c3ccccc3)nc2SCC(=O)NCC2CCCO2)cc1 (centres undefined)	Nrf2 block inconclusive, ClpP mod 28µM!
COc1ccc(-c2ccc(C(=O)Nc3ccc(OC)nc3)c3occc23)c(C)c1	ClpP mod 35µM (no result: miR-21 reporter, Nrf2 block, TCR act, A549 tox)
COc1ccc(-c2ccc(C(=O)Nc3ccc4c(c3)OCO4)c3occc23)c(C)c1	ClpP mod 32µM (no result: miR-21 reporter, Nrf2 block, TCR act, A549 tox)
COc1ccc(OCc2nc3ccccc3n2C(C)C)cc1	Nrf2 block 23µM (no result: ClpP mod)
Cc1cc(C)c(NC(=O)CSc2ccc(-c3sc(-c4ccccc4)nc3C)nn2)c(C)c1	none (no result: TCR act)
CN(C)c1ccc(CNC(=O)c2cccc(NC(=O)N3CCSc4ncccc43)c2)cc1	none (no result: TCR act)
O=C(c1cccc(NS(=O)(=O)c2ccccc2)c1)N1CCCC1	none
O=C(c1cccc(NS(=O)(=O)c2ccc(F)c(F)c2)c1)N1CCN(C(c2ccccc2)c2ccccc2)CC1	Nrf2 block inconclusive, ClpP mod 32µM
N#Cc1c(N)nc2c(c1-c1ccncc1)CCCCC2	ClpP mod 22µM
Cc1c(-c2c(C#N)c(N)nc3c2CCCCCC3)cnn1C	ClpP mod 13µM
CC(C)(C)c1ccc(-c2c(C#N)c(N)nc3c2CCCC3)s1	ClpP mod 32µM
N#Cc1c(N)nc2c(c1-c1cccs1)CCCC2	none
Cc1nn(C)c(C)c1-c1c(C#N)c(N)nc2c1CCCCCC2	ClpP mod 1.3µM
Cc1ccccc1CNC(=O)C(=O)NCC(c1ccc2c(c1)OCO2)N1CCOCC1 (centres undefined)	none (no result: Nrf2 block, TCR act)
Nc1nccc(SCc2ccc(Cl)cc2Cl)n1	none (no result: miR-21 reporter)
Nc1nc(N)c(Cc2ccc(Cl)cc2Cl)c(N)n1	Nrf2 block 18µM (no result: ClpP mod)
O=C(/C=C/c1cccc([N+](=O)[O-])c1)N1CCOCC1	Nrf2 activator 13µM
CCOC(=O)C1CCCN(C(=O)/C=C/c2cccc([N+](=O)[O-])c2)C1 (centres undefined)	ClpP mod 25µM
Cc1nc(N2CCOCC2)c2c(C(=O)N(C)Cc3ccccc3)c(C)oc2n1	none (no result: TCR act)
Cc1cccc(N(CC(=O)NCCSc2ccc(Cl)cc2)S(C)(=O)=O)c1C	none (no result: TCR act)
CCOC(=O)N1CCN(C(=O)COC(=O)c2ccccc2NCCO)CC1	ClpP mod 7.9µM (no result: miR-21 reporter)
CCOC(=O)N1CCC(N2C(=O)c3ccccc3C2Nc2ccccc2C)CC1 (centres undefined)	none
CCOC(=O)c1ccccc1NC1OC(=O)c2ccccc21 (centres undefined)	ClpP mod 28µM
CCOC(=O)c1ccccc1NC1c2ccccc2C(=O)N1C1CCN(C(=O)OCC)CC1 (centres undefined)	Nrf2 block 16µM
CCOc1ccc(CCNC(=O)CCCc2nnc3n(CCCOC)c(=O)c4sccc4n23)cc1	none (no result: TCR act)
Cc1cc(NC(=O)CCC(=O)N(c2cccc(F)c2)C(C(=O)NC2CCCC2)c2ccccc2)no1 (centres undefined)	none (no result: ClpP mod)
Cc1ccc(OCc2ccc(C(=O)NCc3cccnc3)cc2)cc1C	Nrf2 block 23µM (no result: ClpP mod)
O=C(NCc1ccc(Cl)cc1)c1cccnc1	none
O=C(COc1ccc(Cl)cc1)Nc1ccc(C(=O)NCc2cccnc2)cc1	Nrf2 block 21µM
COC(=O)c1sc2ncccc2c1OCc1ccc(Cl)cc1	Nrf2 block inconclusive, ClpP mod 35µM

Bioassay records deposited in PubChem BioAssay by National Center for Advancing Translational Sciences (NCATS).
